Assay results as given in ChEMBL document CHEMBL4270654, “Identification of DK419, a potent inhibitor of Wnt/β-catenin signaling and colorectal cancer growth” (Bioorg Med Chem, 2018).

Legend:
Mus musculus = assay: Apparent clearance in NOD/SCID mouse at 200 mg/kg, po by LC-MS/MS-based non-compartmental extravascular input analysis; format: ADME, organism-based; conditions: in vivo
in vivo = conditions: NOD/SCID, mouse, po, 200 mg/kg

Compound: O=C(Nc1ccc([N+](=O)[O-])cc1Cl)c1cc(Cl)ccc1O [NICLOSAMIDE]
- CL/F (Mus musculus): 0.2 L/kg
- half-life (in vivo): 186 min
